In US20260021064A1, “ACETAMINOPHEN AND NAPROXEN FOR TREATING PAIN” (Kenvue Brands LLC, priority 2022, published 2026):

Tested on: pain after surgical extraction of four third molars
Conditions: 7 Hours post-dose; PR-NRS 0-10
Procedure: 1. Time-Weighted Sum of Total Pain Relief Score From Baseline (0 Hour) to 6 Hours (TOTPAR 0-6) [Time Frame: Baseline (0 hour) up to 6 hours post-dose]. Time-weighted total pain relief (TOTPAR) was measured using a Pain Relief Numerical Rating Scale (PR-NRS) ranging from 0-10 (0=no relief, 10=complete relief). Total pain relief scores (TOTPARs) were calculated by multiplying the pain relief score at each postdose time point by the duration (in hours) since the preceding time point and then summing these values. The minimum value was 0, and the maximum value was 60. Higher scores was indicative of more pain relief.
(§1) 2. […] TOTPAR was measured using a PR-NRS ranging from 0-10 (0=no relief, 10=complete relief). Total pain relief scores (TOTPARs) were calculated by multiplying the pain relief score at each postdose time point by the duration (in hours) since the preceding time point and then summing these values. […]
as §1, with “3.” for “2.”
Time-Weighted Sum of Total Pain Relief Score From baseline (0 Hour) to 8 Hours (TOTPAR 0-8): TOTPAR was measured using a PR-NRS ranging from 0-10 (0=no relief, 10=complete relief). […]

COc1ccc2cc([C@H](C)C(=O)O)ccc2c1 [Arm 2: Naproxen Sodium 440 mg, naproxen sodium]
PAR Score, Least Squares Mean (Standard Error): 6.05 (0.39)
